By Cmax is commonly meant the highest concentration seen after dosing. Broadly, the Tmax is the time from dosing to the highest level.

The chains behind the UniProt entries cited, without tags or fusion partners. Residues count along the entry.
UniProt Q9Y4K0, 26-774 limits assumed: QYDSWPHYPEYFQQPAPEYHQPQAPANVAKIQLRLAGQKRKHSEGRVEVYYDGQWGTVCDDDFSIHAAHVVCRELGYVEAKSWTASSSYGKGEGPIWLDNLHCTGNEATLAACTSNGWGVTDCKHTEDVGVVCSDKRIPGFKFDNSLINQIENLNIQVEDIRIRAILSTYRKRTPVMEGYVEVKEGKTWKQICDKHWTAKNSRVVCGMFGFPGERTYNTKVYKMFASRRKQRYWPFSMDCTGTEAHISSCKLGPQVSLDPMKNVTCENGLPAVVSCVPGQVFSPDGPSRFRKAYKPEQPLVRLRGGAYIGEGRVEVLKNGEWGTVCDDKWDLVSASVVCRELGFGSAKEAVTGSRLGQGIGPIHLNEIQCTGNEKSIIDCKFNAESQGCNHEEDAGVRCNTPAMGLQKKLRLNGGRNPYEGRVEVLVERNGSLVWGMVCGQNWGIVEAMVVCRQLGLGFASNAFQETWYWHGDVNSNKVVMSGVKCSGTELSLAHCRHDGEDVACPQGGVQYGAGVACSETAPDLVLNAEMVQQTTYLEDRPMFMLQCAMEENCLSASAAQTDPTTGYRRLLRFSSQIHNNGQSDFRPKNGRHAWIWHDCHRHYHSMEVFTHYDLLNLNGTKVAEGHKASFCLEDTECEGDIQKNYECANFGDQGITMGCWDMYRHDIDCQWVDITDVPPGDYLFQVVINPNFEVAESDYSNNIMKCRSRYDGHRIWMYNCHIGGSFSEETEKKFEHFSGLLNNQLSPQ
UniProt P33072, 170-418 limits assumed: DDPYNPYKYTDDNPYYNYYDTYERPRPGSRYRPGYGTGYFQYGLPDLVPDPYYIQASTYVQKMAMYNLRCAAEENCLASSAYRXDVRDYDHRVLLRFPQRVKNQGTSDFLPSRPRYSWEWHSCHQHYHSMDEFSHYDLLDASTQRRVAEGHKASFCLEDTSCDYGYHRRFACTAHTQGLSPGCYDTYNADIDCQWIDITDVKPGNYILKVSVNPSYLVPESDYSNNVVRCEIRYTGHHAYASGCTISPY
UniProt P58215, 26-753 limits assumed: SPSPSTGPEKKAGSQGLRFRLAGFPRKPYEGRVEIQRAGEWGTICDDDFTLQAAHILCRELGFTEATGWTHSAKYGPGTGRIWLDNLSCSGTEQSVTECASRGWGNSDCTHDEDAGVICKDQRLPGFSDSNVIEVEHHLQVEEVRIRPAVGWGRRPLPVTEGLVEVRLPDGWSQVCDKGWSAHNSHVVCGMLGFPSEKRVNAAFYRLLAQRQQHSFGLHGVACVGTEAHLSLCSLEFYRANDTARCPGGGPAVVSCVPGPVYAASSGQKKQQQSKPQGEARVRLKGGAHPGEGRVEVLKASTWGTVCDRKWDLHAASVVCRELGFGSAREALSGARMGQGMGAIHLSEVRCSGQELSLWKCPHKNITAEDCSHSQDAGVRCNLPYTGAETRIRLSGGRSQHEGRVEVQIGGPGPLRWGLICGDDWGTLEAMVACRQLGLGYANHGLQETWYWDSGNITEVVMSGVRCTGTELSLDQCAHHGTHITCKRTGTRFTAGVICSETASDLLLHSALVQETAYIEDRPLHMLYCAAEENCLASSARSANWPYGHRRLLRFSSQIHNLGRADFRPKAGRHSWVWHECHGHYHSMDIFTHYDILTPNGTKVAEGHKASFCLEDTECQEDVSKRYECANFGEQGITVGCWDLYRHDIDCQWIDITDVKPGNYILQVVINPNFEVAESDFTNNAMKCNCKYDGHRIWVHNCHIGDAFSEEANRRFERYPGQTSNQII

The target of data set [1] is Recombinant human LOXL2 (lysyl oxidase like 2) (Homo sapiens, UniProt Q9Y4K0). Nature of the data set: LOXL2 inhibition assay (fluorometric, cadaverine/Amplex Red/HRP). As to conditions: read-out: Activity Range LOXL2, IC50 class, recombinant human LOXL2, cadaverine substrate. How it is done:
(§1) The ability of compounds to inhibit one or more of the lysyl oxidases LOXL2 and/or LOXL3 was determined using a fluorometric assay. This assay measures the activity of lysyl oxidases by coupling the reaction with horseradish peroxidase-catalyzed […]. The activity assay protocol uses cadaverine as substrate that releases hydrogen peroxide upon transformation by the specific LOX family enzyme present in the sample. Hydrogen peroxide is in turn detected using a red fluorescence substrate for HRP-coupled reactions (Amplex Red Enzyme Assays, Thermo Scientific Fisher). This leads to increase in fluorescence that can be easily detected at Ex/Em=540/590 nm in a fluorescence microplate reader.
Enzymes: Recombinant human LOXL2 (lysyl oxidase like 2) and recombinant human LOXL3 (lysyl oxidase like 3) were purchased from R&D systems and assays were performed in 1.2 M urea, 50 mM sodium borate buffer pH 8.0, and 10 mM CaCl.
Reaction: Final concentration in the LOXL2 and LOXL3 assays were as following and performed in a total volume of […]:
Experimental procedure: 5 μl of freshly prepared reaction buffer were delivered to reaction wells. Compounds were resuspended in 100% DMSO at 10 mM and delivered into buffer using acoustic technology (Echo550; nanoliter range). A 3× solution of LOXL2 or LOXL3 in reaction buffer was prepared (“enzyme solution”) and 5 μL of enzyme solution was added into the reaction wells. Buffer only was added to column 1 for no protein control. Reactions were incubated for 30 minutes at 37° C. A 3×mixture of cadaverine, Amplex Red, and HRP (“Substrate/Detection Mix) was prepared and subsequently 5 μL of the mixture added to each reaction well. Progress of reactions was monitored for 60 minutes at 37° C. using Clariostar plate reader (ex 530-12, ems 600-40). For all activity assays, pan-LOX inhibitor CCT365623 (Tang et al, 2017) and LOXL2/LOXL3 inhibitor PAT-1251 (PharmaKea) were included as standards.
Data analysis: Slope of the linear portion of the progress curve was calculated using Clariostar software. Typical analysis interval was between 8-30 min, but varied between experiments. The background subtracted signals (No protein wells are considered as background) were converted to % activity relative to DMSO controls. Data was analyzed using GraphPad Prism 4 with “sigmoidal dose-response (variable slope)”; 4 parameters with Hill Slope. Constraints: Bottom=Constant equal to 0. Top=Must be less than 120.

The target in data set [2] is Bovine lysyl oxidase (LOX) (Bos taurus, UniProt P33072). Nature of the data set: LOX inhibition assay (fluorometric, cadaverine/Amplex Red/HRP). As to conditions: read-out: Activity Range LOX, IC50 class, bovine tendon LOX, cadaverine substrate. How it is done: as §1, with “prototypic LOX” for “one or more of the lysyl oxidases LOXL2 and/or LOXL3”, “prototypic” for “the specific”, “LOX” for “LOX family”
Enzyme: Bovine lysyl oxidase (LOX) was extracted by adapting the methodology from [Kagan et al. 1979 and Borel et al. 2001.] from bovine tendon: Frozen adult bovine tendon was placed in room temperature water to defrost, and then membranes were removed and the remaining tissue cut into 1 cm pieces. The material was first passed through a course mesh meat grinder, and this mince was passed through a fine mesh grinder. The mince was homogenized in 10 v/w of buffer (16 mM sodium phosphate buffer pH 7.8, 400 mM NaCl) using a Waring blender. The homogenate was centrifuged at 15,000×g for 15 min at 4° C. After centrifugation, the supernatant was discarded and the pellets resuspended in 10 volumes of the same buffer. The mixture was blended again and centrifuged with the same settings. This time the pellets were blended in 3 volumes of extraction buffer (16 mM sodium phosphate buffer pH 7.8) and left to incubate at 4° C. for 2 h. After this time, the slurry was centrifuged with the same settings as described above. The supernatant was used in an ultrafiltration step to remove large proteins by size exclusion through a 30 kDalton filter (EMD Millipore). The filtrate was mixed with DEAE Sephadex (GE Healthcare), or passed over a MonoQ FPLC column. After two washes, one in 16 mM sodium phosphate buffer pH 7.8, 380 mM NaCl, and another in 16 mM sodium phosphate buffer pH 7.8, the proteins were eluted with 16 mM sodium phosphate pH 7.8, 10 μM CuSO4, and 4 M urea. Fractions containing Lox activity were collected and stored frozen at −70° C.
Reaction: Final concentration in the LOX assay was as following and performed in a total volume of […]:
Experimental procedure: 7 μl of freshly prepared reaction buffer were delivered to reaction wells. […] Progress of reactions was monitored for 120 minutes at 37° C. using Clariostar plate reader (ex530-12, ems 600-40). […]
(§2) Data analysis: Slope of the linear portion of the progress curve was calculated using Clariostar software. […] Data was analyzed using GraphPad Prism 4 with “sigmoidal dose-response (variable slope)”; 4 parameters with Hill Slope. […]

For data set [3], the target named is Recombinant human LOXL3 (lysyl oxidase like 3) (Homo sapiens, UniProt P58215). Briefly: LOXL3 inhibition assay (fluorometric, cadaverine/Amplex Red/HRP). Particulars: read-out: Activity Range LOXL3, IC50 class, recombinant human LOXL3, cadaverine substrate. As for the experimental part: as §1
Enzymes: Recombinant human LOXL2 (lysyl oxidase like 2) and recombinant human LOXL3 (lysyl oxidase like 3) were purchased from R&D systems and assays were performed in 1.2 M urea, 50 mM sodium borate buffer pH 8.0, and 10 mM CaCl. […]
Experimental procedure: 5 μl of freshly prepared reaction buffer were delivered to reaction wells. […] Progress of reactions was monitored for 60 minutes at 37° C. using Clariostar plate reader (ex 530-12, ems 600-40). […]
as §2

A short description of data set [4]: PK study following IV and PO administration in male CD1 mice. As to conditions: tested form: TFA. Set-up: AUClast/D: unit: (ng*h/mL)/(mg/kg). How it is done: The objective of this study was to determine the pharmacokinetic (PK) profile of LOX enzyme inhibiting compounds following IV and PO administrations in male CD1 mice.
Male CDT mice from a qualified provider were used for all studies. Mice were 6-8 weeks old at the time of the experiment (˜20-30 g body weight). All animals for IV & PO administration were fasted overnight and fed after 4 hours collection. The dose formulation was kept at room temperature no more than 2 hours.
Dose formulations were prepared fresh on the day of dosing and stored at ambient temperature. Dose formulations were as following: […]
Blood samples were collected from the dorsal metatarsal vein. Circa 0.03 mL were collected per time point and 0.3 mL at final time point via heart puncture. The blood samples were centrifuged at 4000 g for 5 minutes at 4° C. to obtain plasma and samples were immediately frozen in the upright position and stored at −75±15° C. prior to analysis.
Blood samples were collected at time points outlined in Table 12:
Acceptable time ranges for blood collection were as following: 5 min and 15 min: within +0.25 minute, 30 min, 1 hour, and 2 hours: within +2 minutes; 4 hours, 6 hours, 8 hours, and 24 hours: within +10 minutes.
Concentrations of LOX enzyme inhibiting compounds in the plasma were analyzed using a LC-MS/MS method. WinNonlin (Phoenix™, version 8.2) software was used for pharmacokinetic calculations. The following pharmacokinetic parameters were calculated, whenever possible from the plasma concentration versus time data:
IV administration: T1/2, C0, AUClast, AUCinf, MRTinf, Cl, Vss, Number of Points for Regression.
PO administration: T1/2, Cmax, Tmax, AUClast, AUCinf and F. Number of Points for Regression.
The pharmacokinetic data were described using descriptive statistics such as mean, standard deviation.
Results are outlined in Table 13 (IV), Table 14 (PO) and FIGS. 1-3. Data represent mean values from three mice.

Data set [5] is described as follows: Microsome stability study. As to conditions: tested form: TFA. As for the experimental part: Pooled CD-1 mouse liver microsomes at 0.5 mg/mL were pre-incubated in phosphate buffer (100 mM, pH 7.4) containing 1 mM NADPH and 3 mM MgCl2 in a 96-well plate for 5 minutes at 37° C. Ultra-pure water was added instead of NADPH in the negative control group to exclude the misleading factor that resulted from instability of chemical itself. The reaction was initiated by adding test compound at the final concentration of 2 μM and incubated at 37° C. Aliquots were taken from the incubation at 0, 15, 30, 45 and 60 minutes followed by the addition of 4 volume of cold acetonitrile containing internal standards. Samples were centrifuged and supernatant was used for LC-MS/MS analysis.

[6] abbreviates: IV, 10 mg/kg, plasma, mean of three mice.
Where [7] appears, read: PO, 50 mg/kg, plasma, mean of three mice.
[8] abbreviates: male mouse liver microsomes 0.5 mg/mL, 2 μM, NADPH.

Where two headings read alike, the source gives them in different places.

Consider `NCc1ccnc(S(=O)(=O)N2C[C@@H](C(=O)N3CCOCC3)C[C@@H](N3CCCCC3)C2)c1` (relative stereo), for which the IC50 in data set [1] (tested form: TFA) was below 0.5 µM; in data set [2] (tested form: TFA), above 30 µM.
Consider `CS(=O)(=O)N1CCN(C(=O)[C@H]2C[C@@H](C3CCCCC3)CN(S(=O)(=O)c3ccc(CN)s3)C2)CC1` (relative stereo), for which the IC50 in data set [1] (tested form: TFA) was below 0.5 µM. Besides, the IC50 in data set [3] (tested form: TFA) is below 0.5 µM. In data set [4] (setting [6]), this molecule registered an AUCinf of 1150 ng·h/mL, an AUClast of 1140 ng·h/mL, an AUClast/D of 114 and a C0 of 3340 ng/mL. In data set [4] (setting [6]), the CIobs is on record as 148, the MRTInf—obs was 49.2 min, the T1/2 was 76.2 min and the Vss—obs was 7.28 L/kg. The molecule also had a F in data set [4] (PO 50 mg/kg versus IV 10 mg/kg) of 31. Besides, in data set [4] (setting [7]), the AUCinf was 1780 ng·h/mL, the AUClast was determined as 1770 ng·h/mL, the AUClast/D amounted to 972 and the Cmax was found to be 1440 ng/mL. In addition, in data set [4] (setting [7]), the MRTInf—obs came to 66.6 min, the T1/2 amounted to 69 min and the Tmax amounted to 30 min. Also, the IC50 in data set [2] (tested form: TFA) is below 0.5 µM. In data set [5] (setting [8]), this molecule had a CLint of 65.08 μL/min/mg protein and a T1/2 of 21.30 min. In addition, in data set [5] (mouse liver microsomes), the “Predicted hepatic CL” value is 68.38 mL/min/kg and the “Scaled-up CLint” value turned out to be 284.71 mL/min/kg.
Consider `NCc1cccc(S(=O)(=O)c2cc(C(=O)N3CCS(=O)(=O)CC3)cc(C3OCCCO3)c2)c1`, for which the IC50 in data set [1] is 1 to 30 µM; in data set [2], above 30 µM.
Take `NCc1cccc(S(=O)(=O)[C@@H]2C[C@H](C3CCCCC3)CN(C(=O)N3CCOCC3)C2)c1` (relative stereo): the IC50 in data set [1] is below 0.5 µM; in data set [3], 1 to 30 µM; in data set [2] it was above 30 µM.

The record behind these values is patent publication US20230310445A1, “LOX ENZYME INHIBITING METHODS AND COMPOSITIONS” (ANOVIA BIOSCIENCES, INC., priority 2020, published 2023).
